## Membrane permeability of cyclic peptides

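Conditions beyond the assay type are not listed; see the original paper. The list need not hold all peptides of the study. Peptides that the database sets to -10, its floor, are left out.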

PAMPA is the parallel artificial membrane permeability assay, which has no cells and reads passive diffusion.
Permeability is in 10^-6 cm/s, converted from the database's log10 values; higher is more permeable.

{"smiles": "CC(C)C[C@@H]1NC(=O)[C@@H](CC(C)C)N(C)C(=O)[C@H](C)NC(=O)[C@H](Cc2ccccc2)NC(=O)[C@@H](CC(C)C)NC(=O)[C@H]2CCCN2C1=O", "PAMPA (10^-6 cm/s)": "2"}
{"smiles": "CC(C)C[C@@H]1C(=O)N2CCC[C@@H]2C(=O)N[C@H](CC(C)C)C(=O)N[C@@H](Cc2ccccc2)C(=O)N(C)[C@@H](C)C(=O)N[C@H](CC(C)C)C(=O)N1C", "PAMPA (10^-6 cm/s)": "10"}
{"smiles": "CC(C)C[C@@H]1NC(=O)[C@H](C)NC(=O)[C@@H]2CCCN2C(=O)[C@H](Cc2ccccc2)NC(=O)CN(Cc2ccccc2)C(=O)[C@@H]2CCCN2C(=O)[C@@H](CC(C)C)NC1=O", "PAMPA (10^-6 cm/s)": "0.78"}
{"smiles": "CC(C)C[C@H]1NC(=O)[C@@H](C)N(C)C(=O)[C@H](Cc2ccccc2)NC(=O)[C@H](CC(C)C)N(C)C(=O)[C@H]2CCCN2C(=O)CN(Cc2ccccc2)C1=O", "PAMPA (10^-6 cm/s)": "6.2"}
{"smiles": "CC(C)C[C@@H]1NC(=O)[C@@H](CC(C)C)NC(=O)[C@H](C)N(C)C(=O)[C@@H]2CCCN2C(=O)[C@H](Cc2ccccc2)NC(=O)CN(Cc2ccccc2)C(=O)[C@@H]2CCCN2C1=O", "PAMPA (10^-6 cm/s)": "0.51"}
{"smiles": "CC(C)C[C@@H]1C(=O)N[C@@H](Cc2ccccc2)C(=O)N2CCC[C@@H]2C(=O)N(C)[C@@H](C)C(=O)N(Cc2ccccc2)CC(=O)N[C@@H](Cc2ccccc2)CC(=O)N2CCC[C@@H]2C(=O)N1C", "PAMPA (10^-6 cm/s)": "1.4"}
{"smiles": "CC(C)C[C@@H]1NC(=O)[C@@H](C)N(C)C(=O)[C@H]2CCCN2C(=O)[C@H](Cc2ccccc2)NC(=O)CN(Cc2ccccc2)C(=O)[C@@H]2CCCN2C(=O)[C@@H](CC(C)C)N(C)C1=O", "PAMPA (10^-6 cm/s)": "4.3"}
{"smiles": "CC(C)C[C@@H]1NC(=O)[C@H](C)NC(=O)[C@H](Cc2ccccc2)NC(=O)[C@H](CC(C)C)N(C)C(=O)[C@@H]2CCCN2C(=O)[C@H](CC(C)C)NC1=O", "PAMPA (10^-6 cm/s)": "0.71"}
{"smiles": "CC(C)C[C@@H]1NC(=O)[C@@H](CC(C)C)N(C)C(=O)[C@@H](C)N(C)C(=O)[C@H]2CCCN2C(=O)[C@H](Cc2ccccc2)NC(=O)[C@@H](CC(C)C)NC(=O)[C@H]2CCCN2C1=O", "PAMPA (10^-6 cm/s)": "1.3"}
{"smiles": "CC(C)C[C@@H]1C(=O)N[C@@H](Cc2ccccc2)C(=O)N2CCC[C@@H]2C(=O)N[C@@H](Cc2ccccc2)CC(=O)N[C@H](CC(C)C)C(=O)N(Cc2ccccc2)CC(=O)N2CCC[C@@H]2C(=O)N1C", "PAMPA (10^-6 cm/s)": "4.2"}
{"smiles": "CC(C)C[C@@H]1C(=O)N[C@H](CC(C)C)C(=O)N2CCC[C@H]2C(=O)N(C)[C@H](CC(C)C)C(=O)N[C@@H](Cc2ccccc2)C(=O)N[C@@H](Cc2ccccc2)CC(=O)N1C", "PAMPA (10^-6 cm/s)": "7.8"}
{"smiles": "CC(C)C[C@H]1NC(=O)[C@H](C)NC(=O)[C@@H]2CCCN2C(=O)[C@H](Cc2ccccc2)NC(=O)[C@H](CC(C)C)N(C)C(=O)[C@H]2CCCN2C(=O)[C@H](CC(C)C)N(C)C1=O", "PAMPA (10^-6 cm/s)": "1.7"}
{"smiles": "CC(C)C[C@H]1NC(=O)[C@@H](C)N(C)C(=O)[C@H]2CCCN2C(=O)[C@H](Cc2ccccc2)NC(=O)[C@H](CC(C)C)N(C)C(=O)[C@@H]2CCCN2C(=O)[C@H](CC(C)C)N(C)C1=O", "PAMPA (10^-6 cm/s)": "7.2"}
{"smiles": "CC(C)C[C@@H]1C(=O)N[C@@H](Cc2ccccc2)C(=O)N2CCC[C@@H]2C(=O)N(C)[C@H](C)C(=O)N[C@H](CC(C)C)C(=O)N(C)[C@H](CC(C)C)C(=O)N2CCC[C@@H]2C(=O)N1C", "PAMPA (10^-6 cm/s)": "1.7"}
{"smiles": "CC(C)C[C@@H]1NC(=O)[C@H](C)N(C)C(=O)[C@@H]2CCCN2C(=O)[C@H](Cc2ccccc2)NC(=O)CN(Cc2ccccc2)C(=O)[C@@H]2CCCN2C(=O)[C@H](CC(C)C)N(C)C1=O", "PAMPA (10^-6 cm/s)": "3.3"}
{"smiles": "CC(C)C[C@H]1NC(=O)[C@H]2CCCN2C(=O)CN(Cc2ccccc2)C(=O)[C@@H](CC(C)C)NC(=O)[C@@H](C)NC(=O)[C@H]2CCCN2C(=O)[C@H](Cc2ccccc2)NC1=O", "PAMPA (10^-6 cm/s)": "0.83"}
{"smiles": "CCCN1CC(=O)N(Cc2ccccc2)CC(=O)N(C)[C@H](CC(C)C)C(=O)N2CCC[C@H]2C(=O)N(C)[C@H](CC(C)C)C(=O)N[C@@H](Cc2ccccc2)C(=O)N2CCC[C@@H]2C1=O", "PAMPA (10^-6 cm/s)": "2.7"}
{"smiles": "CC(C)C[C@@H]1NC(=O)[C@@H](CC(C)C)N(C)C(=O)C[C@H](Cc2ccccc2)NC(=O)[C@H]2CCCN2C(=O)[C@H](Cc2ccccc2)NC(=O)[C@@H](CC(C)C)NC(=O)[C@@H]2CCCN2C1=O", "PAMPA (10^-6 cm/s)": "4.4"}
{"smiles": "CC(C)C[C@H]1NC(=O)[C@H]2CCCN2C(=O)C[C@H](Cc2ccccc2)NC(=O)[C@H](CC(C)C)N(C)C(=O)[C@H](C)N(C)C(=O)[C@H](Cc2ccccc2)NC1=O", "PAMPA (10^-6 cm/s)": "2.5"}
{"smiles": "CC(C)C[C@H]1NC(=O)[C@@H](C)NC(=O)[C@H](Cc2ccccc2)NC(=O)[C@H](CC(C)C)N(C)C(=O)[C@H]2CCCN2C(=O)[C@@H](CC(C)C)NC1=O", "PAMPA (10^-6 cm/s)": "0.1"}
{"smiles": "CC(C)C[C@H]1NC(=O)C[C@H](Cc2ccccc2)NC(=O)[C@H](Cc2ccccc2)NC(=O)CN(Cc2ccccc2)C(=O)[C@@H]2CCCN2C(=O)[C@@H](CC(C)C)NC1=O", "PAMPA (10^-6 cm/s)": "3.4"}
{"smiles": "CC(C)C[C@@H]1NC(=O)[C@@H](C)N(C)C(=O)[C@H]2CCCN2C(=O)[C@H](Cc2ccccc2)NC(=O)[C@@H](CC(C)C)NC(=O)[C@@H]2CCCN2C(=O)CN(Cc2ccccc2)C1=O", "PAMPA (10^-6 cm/s)": "2.5"}
{"smiles": "CC(C)C[C@H]1NC(=O)[C@H](C)NC(=O)[C@H]2CCCN2C(=O)[C@H](Cc2ccccc2)NC(=O)CN(Cc2ccccc2)C(=O)[C@@H]2CCCN2C(=O)CN(Cc2ccccc2)C1=O", "PAMPA (10^-6 cm/s)": "2.2"}

Values of Townsend et al. 2020, doi:10.26434/chemrxiv.13335941.v1, as listed in CycPeptMPDB.